For 1 molecule, Diuretic activity results are on record in ChEMBL document CHEMBL1121573, “2-(Aminomethyl)phenols, a new class of saluretic agents. 1. Effects of nuclear substitution” (J Med Chem, 1980).

The series concerns Rattus norvegicus. In words: Oral diuretic activity was evaluated by measuring Na+ excretion in Rat at 27 mg/kg […] (0-5 hr). To be noted: in vivo. Format: ADME, organism-based, Urine. Details: dose 27 mg/kg. In outline: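 Female Charles-River rats (150–170 g) were kept overnight on a sugar diet with water ad libitum. Compound was dissolved in DMF, then diluted with water containing Tween 80 (3 drops/100 mL) to a final 4% DMF, and given po in 5.0 mL. Rats were housed three per metabolism cage. Urine from 0–5 h was analysed for Na+, K+ and Cl−, with concurrent placebo controls. Values are mequiv × 100 per cage, geometric mean of three cages per dose.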

`NS(=O)(=O)c1cc(C(=O)O)c(NCc2ccco2)cc1Cl` [FUROSEMIDE] came in with a Diuretic activity of 1.25.
